The results in this text go back to ChEMBL document CHEMBL1833821, “Defining the structural parameters that confer anticonvulsant activity by the site-by-site modification of (R)-N'-benzyl 2-amino-3-methylbutanamide” (J Med Chem, 2011).

The species named for the test is Mus musculus. Briefly: Protective index, ratio of TD50 for albino CF1 mouse by rotarod test to ED50 for albino CF1 mouse by maximal electroshock seizures test. It is filed as functional. The method, boiled down:
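Mouse protective index calculated as rotorod TD50 divided by MES ED50, both from ip dosing of male CF-1 mice at the NINDS ASP.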
(The rotarod test checks motor coordination on a turning rod.)

On to `O=C1NC(=O)C(c2ccccc2)(c2ccccc2)N1` [PHENYTOIN], for which the PI is on record as 2.8.
